From PubChem BioAssay AID2130 (The Scripps Research Institute Molecular Screening Center, 2009)
This is a selection; strong and weak results do not stand in their true shares. Some structures show a salt or complex split into parts, the way the source records it. Active and inactive are the calls of the source.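 How the source made its calls: active means inhibition above the campaign mean of all compounds plus 3 SD (cut at about 26% in these data); inactive means the rest.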

Chains of the proteins cited; added tags and fusions are not shown.
UniProt Q9Y570, whole entry: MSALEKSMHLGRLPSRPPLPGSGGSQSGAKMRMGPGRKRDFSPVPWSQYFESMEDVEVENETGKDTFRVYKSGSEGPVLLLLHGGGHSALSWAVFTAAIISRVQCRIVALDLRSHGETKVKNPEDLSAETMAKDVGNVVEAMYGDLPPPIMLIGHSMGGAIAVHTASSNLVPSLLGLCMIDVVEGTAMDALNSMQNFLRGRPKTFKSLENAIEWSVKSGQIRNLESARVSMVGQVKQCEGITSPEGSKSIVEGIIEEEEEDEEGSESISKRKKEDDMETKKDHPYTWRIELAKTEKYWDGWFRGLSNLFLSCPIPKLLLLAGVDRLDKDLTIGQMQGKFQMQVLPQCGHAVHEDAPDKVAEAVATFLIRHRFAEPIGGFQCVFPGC

Biological target: Protein phosphatase methylesterase 1 (Homo sapiens) (UniProt Q9Y570)
Test: human PME-1 methylesterase blockers – biochemical, fluorescence polarization, FP-Rh probe, HTS, primary screen (AID 2130);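 further: competitive labeling of PME-1 active site by serine hydrolase directed probe; 0% = PME-1 with DMSO and 100% = wells lacking PME-1 enzyme; inhibitors block probe labeling so polarization falls and inhibition rises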
Conditions: recombinant PME-1, FP-Rh probe fluorescence polarization; at 5.9 µM; hits give high values

Structure (SMILES)	inhibition
COc1ccccc1OP(C)(=O)Nc1ccc(C)c(C)c1 (centres undefined)	inactive: 2.45%
Cc1nc2ccc3ccccc3c2o1.O=[N+]([O-])c1cc([N+](=O)[O-])c(O)c([N+](=O)[O-])c1	inactive: -6.31%
CP(=O)(Nc1ccc(Cl)cc1Cl)Oc1ccccc1 (centres undefined)	inactive: 7.3%
CP(=O)(OCCOc1ccccc1)OCCOc1ccccc1	inactive: -1.32%
COc1ccccc1OP(C)(=O)Nc1ccc(Br)cc1 (centres undefined)	inactive: -0.57%
CN(C)CCOC(=O)C(O)(c1ccccc1)C1CCCC1 (centres undefined)	inactive: -5.44%
COc1ccc(OP(C)(=O)Nc2ccccn2)cc1 (centres undefined)	inactive: -8.07%
Cc1c(NP(C)(=O)Oc2ccc(C(C)C)cc2)c(=O)n(-c2ccccc2)n1C (centres undefined)	inactive: 2%
O=[N+]([O-])c1cc([N+](=O)[O-])c(Nc2ccccn2)c([N+](=O)[O-])c1	inactive: 1.84%
CCc1ccc(OP(C)(=O)O)cc1	inactive: -3.66%
COc1ccccc1OP(C)(=O)Nc1ccc(C)cc1C (centres undefined)	inactive: 1.31%
CP(=O)(Nc1ccccn1)Oc1ccccc1 (centres undefined)	inactive: 5.39%
COc1ccc(OP(C)(=O)Nc2ccc(Br)cc2)cc1 (centres undefined)	inactive: 11%
CCN(CC)CC(O)COC(=O)C(O)(c1ccccc1)C1CCCCC1 (centres undefined)	inactive: 1.11%
CCc1ccc(OP(C)(=O)Nc2cccnc2)cc1 (centres undefined)	inactive: 0%
CP(=O)(Oc1ccccc1)N1CCOC1=O (centres undefined)	inactive: 0.55%
O=C(OCCCN1CCCC1)C(O)(c1ccccc1)C1CCCCC1 (centres undefined)	inactive: -1.94%
COc1ccccc1OP(C)(=O)Nc1c(C)n(C)n(-c2ccccc2)c1=O (centres undefined)	inactive: -0.76%
CP(=O)(Nc1ccc(Cl)cc1)Oc1ccc(F)cc1 (centres undefined)	inactive: 6.96%
COc1ccccc1OP(C)(=O)Nc1ccccc1Br (centres undefined)	inactive: 12.7%
CC(C)(C)c1ccc(OP(C)(=O)O)cc1	inactive: 3.07%
CN(C)C(=O)c1c([N+](=O)[O-])cc([N+](=O)[O-])cc1[N+](=O)[O-]	inactive: 0.06%

Structure (SMILES)	inhibition
Nc1ccc2c(ccc3cccnc32)n1.O=[N+]([O-])c1cc([N+](=O)[O-])c(O)c([N+](=O)[O-])c1	inactive: 3.32%
CP(=O)(OC12CC3CC(CC(C3)C1)C2)OC12CC3CC(CC(C3)C1)C2	inactive: 2.84%
CCOC(=O)c1ccc(NP(C)(=O)Oc2ccc(Cl)cc2)cc1 (centres undefined)	active: 35%
COc1ccc(OP(C)(=O)Nc2cccc(Br)c2)cc1 (centres undefined)	inactive: -0.92%
COc1ccc(NP(C)(=O)Oc2ccccc2OC)cc1 (centres undefined)	inactive: 0.46%
CN(C)CCOC(=O)C(O)(c1ccccc1)C1CCCCC1 (centres undefined)	inactive: 6.96%
O=[N+]([O-])c1cc([N+](=O)[O-])c(NCC2CCS(=O)(=O)C2)c([N+](=O)[O-])c1 (centres undefined)	inactive: 7.69%
CP(=O)(Nc1ccc(SC(F)(F)F)cc1)Oc1ccc(F)cc1 (centres undefined)	inactive: 2.49%
CCOP(C)(=S)SCC(=O)NC(C)(CC)C(=O)O (centres undefined)	inactive: 3.93%
CP(=O)(Nc1ccc2c(c1)OCCO2)Oc1ccccc1 (centres undefined)	inactive: 5.48%
Cc1ccccc1NP(C)(=O)Nc1ccccc1C	inactive: -0.93%
CC(C)c1ccc(OP(C)(=O)Nc2ccc(SC(F)(F)F)cc2)cc1 (centres undefined)	inactive: -1.01%
CP(=O)(Nc1ccccc1F)Oc1ccccc1 (centres undefined)	inactive: 12.2%
O=C(OCCN1CCN(CCOCc2ccccc2)CC1)C(O)(c1ccccc1)c1ccccc1	inactive: -6.81%
O=C(OC1CN2CCC1CC2)c1ccc([N+](=O)[O-])cc1 (centres undefined)	inactive: 2.35%
COc1ccc2c(c1O)-c1c(O)c(OC)cc3c1[C@H](C2)[N+](C)(C)CC3.O=[N+]([O-])c1cc([N+](=O)[O-])c([O-])c([N+](=O)[O-])c1[O-]	inactive: -3.3%
COc1ccc(OP(C)(=O)Nc2ccc(SC(F)(F)F)cc2)cc1 (centres undefined)	inactive: -1.44%
CCOC(=O)c1ccc(NP(C)(=O)Oc2ccc(F)cc2)cc1 (centres undefined)	inactive: 24.3%
CCN(CC)CCCOC(=O)C(O)(c1ccccc1)C1CCCCC1 (centres undefined)	inactive: 3.72%
CCCCCOc1ccc(NP(C)(=O)Oc2ccc(Cl)cc2Cl)cc1 (centres undefined)	active: 64.1%
O=[N+]([O-])c1cc([N+](=O)[O-])c(OC2CCCCC2O)c([N+](=O)[O-])c1 (centres undefined)	inactive: -1.25%
CP(=O)(Nc1ccccc1)Oc1ccc(F)cc1 (centres undefined)	inactive: 11%
